# Paper PMC8571951, “An activity‐based bioprobe differentiates a novel small molecule inhibitor from a LOXL2 antibody and provides renewed promise for anti‐fibrotic therapeutic strategies” (Clinical and Translational Medicine, 2021)
# Sequences of proteins named here, by UniProt entry; tags and fusion partners are left off. Residues count along the entry.
# UniProt Q9Y4K0, 26-774 limits assumed: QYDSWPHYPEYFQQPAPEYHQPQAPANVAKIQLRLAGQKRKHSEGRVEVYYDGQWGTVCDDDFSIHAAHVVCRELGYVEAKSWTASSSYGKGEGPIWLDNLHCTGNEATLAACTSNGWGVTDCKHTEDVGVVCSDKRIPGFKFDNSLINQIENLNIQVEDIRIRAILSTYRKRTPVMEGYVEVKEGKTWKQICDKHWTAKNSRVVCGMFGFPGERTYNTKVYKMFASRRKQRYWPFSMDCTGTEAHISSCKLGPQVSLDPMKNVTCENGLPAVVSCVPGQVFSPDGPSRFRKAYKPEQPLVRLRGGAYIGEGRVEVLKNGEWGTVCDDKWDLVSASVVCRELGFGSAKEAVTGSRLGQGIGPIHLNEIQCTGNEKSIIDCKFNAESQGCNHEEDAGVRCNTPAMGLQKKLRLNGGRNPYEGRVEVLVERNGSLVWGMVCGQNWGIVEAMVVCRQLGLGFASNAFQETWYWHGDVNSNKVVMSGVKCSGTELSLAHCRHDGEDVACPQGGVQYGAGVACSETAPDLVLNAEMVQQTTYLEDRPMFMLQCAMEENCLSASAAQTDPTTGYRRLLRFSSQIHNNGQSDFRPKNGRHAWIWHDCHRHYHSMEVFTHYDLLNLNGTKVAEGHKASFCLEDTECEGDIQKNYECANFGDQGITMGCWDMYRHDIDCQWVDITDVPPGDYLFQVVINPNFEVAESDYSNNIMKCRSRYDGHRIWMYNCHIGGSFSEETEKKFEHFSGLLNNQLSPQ
# UniProt Q08397, 96-574 limits assumed: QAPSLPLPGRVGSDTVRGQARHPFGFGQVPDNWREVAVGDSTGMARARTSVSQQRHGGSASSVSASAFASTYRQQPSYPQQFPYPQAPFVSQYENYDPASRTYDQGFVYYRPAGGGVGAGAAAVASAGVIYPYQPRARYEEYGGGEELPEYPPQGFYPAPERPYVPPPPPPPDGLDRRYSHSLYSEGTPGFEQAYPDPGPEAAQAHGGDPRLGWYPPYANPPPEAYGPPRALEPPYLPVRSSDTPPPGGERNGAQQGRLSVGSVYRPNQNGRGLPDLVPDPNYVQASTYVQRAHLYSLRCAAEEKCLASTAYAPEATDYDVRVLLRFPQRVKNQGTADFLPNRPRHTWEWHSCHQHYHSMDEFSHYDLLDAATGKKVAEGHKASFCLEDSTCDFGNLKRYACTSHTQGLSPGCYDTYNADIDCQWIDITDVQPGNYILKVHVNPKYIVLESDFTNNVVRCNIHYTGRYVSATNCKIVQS
# UniProt P58215, 26-753 limits assumed: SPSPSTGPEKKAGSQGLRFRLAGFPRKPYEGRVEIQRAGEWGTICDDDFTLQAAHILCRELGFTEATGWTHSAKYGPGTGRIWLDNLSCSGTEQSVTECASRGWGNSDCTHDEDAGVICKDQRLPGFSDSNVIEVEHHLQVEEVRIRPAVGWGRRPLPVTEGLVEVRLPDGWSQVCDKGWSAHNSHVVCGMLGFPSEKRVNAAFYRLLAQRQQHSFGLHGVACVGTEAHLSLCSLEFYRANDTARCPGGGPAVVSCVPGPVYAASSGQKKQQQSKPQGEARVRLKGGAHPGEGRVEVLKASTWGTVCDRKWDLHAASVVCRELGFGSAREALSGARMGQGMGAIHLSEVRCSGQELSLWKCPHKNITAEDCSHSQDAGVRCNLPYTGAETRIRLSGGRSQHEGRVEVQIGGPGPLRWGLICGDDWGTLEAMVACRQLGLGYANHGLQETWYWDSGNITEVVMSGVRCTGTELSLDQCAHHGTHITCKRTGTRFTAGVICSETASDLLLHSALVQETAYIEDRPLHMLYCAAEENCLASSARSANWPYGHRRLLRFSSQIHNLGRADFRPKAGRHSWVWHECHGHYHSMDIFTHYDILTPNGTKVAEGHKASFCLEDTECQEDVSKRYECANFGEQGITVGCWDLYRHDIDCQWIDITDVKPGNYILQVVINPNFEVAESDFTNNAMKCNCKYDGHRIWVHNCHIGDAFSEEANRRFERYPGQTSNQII
# Key:
# Recombinant human LOXL2 = Recombinant human LOXL2 (Homo sapiens, UniProt Q9Y4K0); experiment: Standard Amplex Red assay, rh LOXL2 (putrescine substrate); conditions: read-out: Recombinant human LOXL2 IC50, 30 min pre-incubation
# Excerpt: (§1) FIGURE 1 Characteristics of the activity‐based probe (ABP) PXS‐5878. (A) Chemical structure of PXS‐5878, with functional subunits denoted with different colours. The fluoroallylamine moiety (blue) was designed to interact with the lysine tyrosylquinone (LTQ) co‐factor within the lysyl oxidase active sites. An extended linker (green) was incorporated to provide optimal separation between the reactive functional group and the tag, avoiding unfavourable steric hindrance. Biotin was selected as a tag, with higher sensitivity found to be achieved using a double tag (red), resulting in PXS‐5878 as the preferred ABP. (B) Concentration‐dependent inhibition of recombinant human (rh) lysyl oxidase‐like 1‐4 (LOXL1‐4) and native bovine LOX in a standard Amplex Red assay with 30 min pre‐incubation; n = 3–4 independent experiments, standard error of mean (SEM). Native bovine LOX was used as a surrogate for human LOX as both enzymes have similar pharmacology for fluoroallylamines.[2], [9] (C) Irreversible nature of PXS‐5878 enzyme inhibition confirmed using a jump dilution assay. […]
# (§2) FIGURE 2 Characteristics of PXS‐5338 and inhibition of lysyl oxidase‐like 2 (LOXL2) enzymatic activity in vitro and in vivo. […] (B) Tissue levels of PXS‐5338 measured 1 and 4 h after a single oral dose of 30 mg/kg in the rat. […]
# Recombinant human LOXL1 = Recombinant human LOXL1 (Homo sapiens, UniProt Q08397); experiment: Standard Amplex Red assay, rh LOXL1; conditions: read-out: Recombinant human LOXL1 IC50, 30 min pre-incubation
# Excerpt: as §1, §2
# LOXL3 [1] = target: T1, LOXL3 (Homo sapiens, UniProt P58215); experiment: Standard Amplex Red assay, rh LOXL3; conditions: read-out: Recombinant human LOXL3 IC50, 30 min pre-incubation
# Excerpt: as §1, §2
# rh LOXL1 = rh LOXL1 (Homo sapiens, UniProt Q08397); experiment: Jump dilution assay, rh LOXL1; conditions: 10 × IC50 for 30 min, diluted 100x
# Excerpt: (§3) FIGURE 1 Characteristics of the activity‐based probe (ABP) PXS‐5878. (A) Chemical structure of PXS‐5878, with functional subunits denoted with different colours. The fluoroallylamine moiety (blue) was designed to interact with the lysine tyrosylquinone (LTQ) co‐factor within the lysyl oxidase active sites. An extended linker (green) was incorporated to provide optimal separation between the reactive functional group and the tag, avoiding unfavourable steric hindrance. Biotin was selected as a tag, with higher sensitivity found to be achieved using a double tag (red), resulting in PXS‐5878 as the preferred ABP. (B) Concentration‐dependent inhibition of recombinant human (rh) lysyl oxidase‐like 1‐4 (LOXL1‐4) and native bovine LOX in a standard Amplex Red assay with 30 min pre‐incubation; n = 3–4 independent experiments, standard error of mean (SEM). Native bovine LOX was used as a surrogate for human LOX as both enzymes have similar pharmacology for fluoroallylamines.[2], [9] (C) Irreversible nature of PXS‐5878 enzyme inhibition confirmed using a jump dilution assay. Enzyme (rh LOXL1, rh LOXL2 or LOXL3) was pre‐incubated with 10 × IC50 of PXS‐5878 for 30 min, then diluted 100x and remaining activity assessed by Amplex Red assay. […] Each value is an average of three experiments. […]
# rh LOXL2 = rh LOXL2 (Homo sapiens, UniProt Q9Y4K0); experiment: Jump dilution assay, rh LOXL2; conditions: 10 × IC50 for 30 min, diluted 100x
# Excerpt: as §1, with “[9]” for “[9] (C) Irreversible nature of PXS‐5878 enzyme inhibition confirmed using a jump dilution assay.”
# For fluoroallylamine-based inhibitors, replacement of fluorine with hydrogen (leading to the corresponding des-fluoro structures) results in a drop in potency and a switch from irreversible to reversible inhibition. […] (B) For PXS-5878, removal of the fluoro moiety in a simplified analogue results in a significant drop in potency for LOXL2, meaning (ir)reversibility cannot be accurately measured.
# LOXL3 [2] = target: T1, LOXL3; experiment: Jump dilution assay, LOXL3; conditions: 10 × IC50 for 30 min, diluted 100x
# Excerpt: as §3
IC50 (Recombinant human LOXL2),IC50 (Recombinant human LOXL1),IC50 (LOXL3 [1]),Recovery of enzyme activity after jump dilution (rh LOXL1),Recovery of enzyme activity after jump dilution (rh LOXL2),Recovery of enzyme activity after jump dilution (LOXL3 [2]),Compound
8 µM,,,,,,NC/C=C/CS(=O)(=O)c1ccccc1
0.464 µM,2.47 µM,0.698 µM,enzyme activity almost fully recovered,enzyme activity almost fully recovered,enzyme activity almost fully recovered,Cc1c(-c2cccc(S(=O)(=O)N(C)C)c2)c2cc(C(=O)N(C)C)ccc2n1C/C=C/CN
